Ab-95 light chain CDR variants: yeast mating affinities

Target peptide (SARS-CoV-2 spike, HR2 region): PDVDLGDISGINAS

The variants keep the heavy chain, the linker and the frameworks of Ab-95 (scFv order VH, the linker GGGGSGGGGSGGGGS, VL).
VH: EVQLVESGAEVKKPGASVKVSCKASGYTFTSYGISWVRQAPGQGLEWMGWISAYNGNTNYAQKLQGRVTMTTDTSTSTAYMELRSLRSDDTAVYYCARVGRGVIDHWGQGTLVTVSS
VL: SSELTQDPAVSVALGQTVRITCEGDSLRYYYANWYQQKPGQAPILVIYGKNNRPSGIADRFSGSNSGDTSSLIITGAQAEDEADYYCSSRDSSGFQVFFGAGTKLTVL

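The starting antibody came from a phage panning campaign against this peptide. Variants in AAYL52 differ from the parent at up to three CDR positions; double and triple changes were sampled at random. The assay is AlphaSeq: two haploid yeast populations carry antibody and antigen on their surface. The frequency of each diploid, read from paired DNA barcodes, reflects how well the two displayed proteins bind. Each replicate has its own calibration line, from reference interactions of the BCL2 family. Each pool was mated in three replicate cultures.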

Positions count from residue 1 of the parent VL; R28G puts G in place of R. Affinities are written as log10 Kd with Kd in nM; a lower number is a better binder. The mean shown is taken over the replicates in which the pair was detected. "ND" means that the variant was in the library but no mating with the target was seen in that replicate; the authors take this as a sign of poor binding, and no number exists. In this assay the parent's reference entry averaged 2.31; its copy inside this library read 2.25.

changes | replicates, log10 nM | mean log10 Kd (nM) | control signals
R28G K50I S88W | 4.79 / ND / ND | 4.79 | 3/9 (4.66)
D25G N33F | ND / ND / ND | ND | 2/9 (3.33)
N51H S89I F95S | ND / ND / ND | ND | 1/9 (3.61)
N33R N52K S88T | ND / ND / ND | ND | 0/9
D25V Y31Q Q96P | 2.04 / 2.07 / 1.41 | 1.84 | 1/9 (2.71)
K50C R53T S92M | 4.38 / ND / ND | 4.38 | 6/9 (3.49)
R28V Y31I Q96H | 4.02 / ND / 4.06 | 4.04 | 2/9 (3.52)
P54C | 2.88 / 2.51 / 3.00 | 2.80 | 5/9 (3.64)
D25L S26I Y31G | 3.57 / 3.12 / 3.46 | 3.38 | 1/9 (4.37)
S88P S93A G94L | 2.81 / 3.26 / 2.23 | 2.77 | 5/9 (3.62)
Y29G A32N Q96N | 2.73 / 2.07 / 1.96 | 2.25 | 1/9 (3.41)
G24Y D25L Y31H | ND / 3.81 / ND | 3.81 | 2/9 (4.17)
L27K Y30E F98I | 2.19 / 2.61 / 1.61 | 2.13 | 5/9 (3.78)
S55M S88A D91T | 2.91 / 2.60 / 2.98 | 2.83 | 3/9 (4.11)
Y31K P54H S92C | 3.66 / 3.15 / 3.08 | 3.30 | 2/9 (4.14)
D25T Y31C F95Q | 2.52 / 2.67 / 2.74 | 2.65 | 1/9 (4.57)
Y29V G94Y V97A | 3.04 / 2.65 / 2.65 | 2.78 | 1/9 (3.69)
Y31T N52E G94L | 1.94 / 1.29 / 1.71 | 1.65 | 5/9 (3.77)
Y29A N51P G94Q | ND / 3.08 / 3.54 | 3.31 | 2/9 (3.85)
A32L N33C Q96F | 4.85 / 3.27 / ND | 4.06 | 3/9 (3.49)
E23W D25T S93A | 1.89 / ND / 2.06 | 1.98 | 0/9
N52R F95P | 3.84 / 4.06 / ND | 3.95 | 1/9 (3.33)
L27R Y31H F95T | 4.17 / 5.12 / 2.23 | 3.84 | 1/9 (4.21)
D25P R28Q F95V | 2.31 / 2.17 / 1.74 | 2.07 | 4/9 (3.73)
E23L G24W R90H | ND / ND / ND | ND | 0/9
Y30W S92W F95Q | 2.92 / 2.60 / 2.64 | 2.72 | 3/9 (3.20)
A32N N33M S93K | ND / ND / ND | ND | 1/9 (2.74)
S26T Y30L S55R | 3.95 / 3.56 / 3.13 | 3.55 | 0/9
N33V N51F G94L | ND / ND / ND | ND | 5/9 (4.14)
G49M D91F F95D | ND / 3.11 / 3.74 | 3.42 | 5/9 (3.73)
G24P Y29H G49S | ND / 3.67 / 3.27 | 3.47 | 3/9 (3.02)
Y30A K50P N51G | 1.01 / 1.01 / 0.52 | 0.85 | 2/9 (4.83)
L27F Y30F V97M | ND / ND / ND | ND | 3/9 (4.27)
E23G Y31A Q96G | 2.40 / 2.25 / 1.70 | 2.11 | 5/9 (3.79)
R28Y R53P F98V | ND / ND / ND | ND | 2/9 (3.53)
L27H F95H V97M | 4.04 / 4.04 / ND | 4.04 | 5/9 (3.78)
L27D N51W R90N | ND / ND / ND | ND | 3/9 (3.78)
R28H N33Q | 3.75 / 4.34 / ND | 4.04 | 2/9 (3.71)
E23P A32M | ND / ND / ND | ND | 3/9 (3.65)
L27M K50I N52A | 1.91 / 1.61 / 1.27 | 1.60 | 3/9 (3.72)
N33I S88M F98E | ND / ND / ND | ND | 2/9 (4.49)
E23K S26N R28A | 2.95 / 2.57 / 2.25 | 2.59 | 3/9 (3.71)
S55P G94F Q96D | 2.76 / 2.72 / 3.12 | 2.87 | 5/9 (3.83)
P54H S89L F98C | 4.42 / 5.60 / ND | 5.01 | 2/9 (3.53)
S26L S88I | ND / 3.52 / ND | 3.52 | 2/9 (4.75)
Y31I N51H S92A | 3.72 / 2.91 / 3.68 | 3.43 | 4/9 (3.75)
S26F K50E P54G | 3.23 / 3.12 / 2.86 | 3.07 | 3/9 (4.00)
D25C S55A F95N | 3.62 / ND / 2.80 | 3.21 | 2/9 (4.23)
E23D N33P D91I | 4.64 / 5.52 / 3.76 | 4.64 | 8/9 (3.73)

Top 8 of the variants detected in all replicates, tightest first:

{"changes": "Y30A K50P N51G", "replicates, log10 nM": "1.01 / 1.01 / 0.52", "mean log10 Kd (nM)": "0.85", "control signals": "2/9 (4.83)"}
{"changes": "L27M K50I N52A", "replicates, log10 nM": "1.91 / 1.61 / 1.27", "mean log10 Kd (nM)": "1.60", "control signals": "3/9 (3.72)"}
{"changes": "Y31T N52E G94L", "replicates, log10 nM": "1.94 / 1.29 / 1.71", "mean log10 Kd (nM)": "1.65", "control signals": "5/9 (3.77)"}
{"changes": "D25V Y31Q Q96P", "replicates, log10 nM": "2.04 / 2.07 / 1.41", "mean log10 Kd (nM)": "1.84", "control signals": "1/9 (2.71)"}
{"changes": "D25P R28Q F95V", "replicates, log10 nM": "2.31 / 2.17 / 1.74", "mean log10 Kd (nM)": "2.07", "control signals": "4/9 (3.73)"}
{"changes": "E23G Y31A Q96G", "replicates, log10 nM": "2.40 / 2.25 / 1.70", "mean log10 Kd (nM)": "2.11", "control signals": "5/9 (3.79)"}
{"changes": "L27K Y30E F98I", "replicates, log10 nM": "2.19 / 2.61 / 1.61", "mean log10 Kd (nM)": "2.13", "control signals": "5/9 (3.78)"}
{"changes": "Y29G A32N Q96N", "replicates, log10 nM": "2.73 / 2.07 / 1.96", "mean log10 Kd (nM)": "2.25", "control signals": "1/9 (3.41)"}

Three control strains display no target. For library AAYL52, 28% of the pairings with them gave a signal, with a median of 3.91 and one signal in twenty below 2.90, so weak values seen in few replicates may be background. Also given: how often the same scFv was detected with the empty control strains, with their mean in brackets.

Values reported by Engelhart et al. 2022, doi:10.1038/s41597-022-01779-4 (FLAb copy).